The record followed here is patent US20220087946A1, “COMPOSITIONS, METHODS, SYSTEMS AND/OR KITS FOR PREVENTING AND/OR TREATING NEOPLASMS” (Research Cancer Institute of America, priority 2017, published 2022).

For the data set, the system named is stage four bilateral infiltrating moderately differentiated ductal carcinoma. The data set can be described thus: Case study Example 19: stage four breast ductal carcinoma.

The substance “TDM-1: Kadcyla (TDM-1), one injection received in Example 19” registered a CEA (388 at start, successive measurements, before TDM-1 669, after TDM-1 972) of 972. Where the note is “in vivo”, the toxic side effects entry was “significant toxicity”. The “CA 15-3” value (successive measurements, before TDM-1 695) was 1062. Also, the “CA 27.29” value (successive measurements, before TDM-1 763) is on record as 1313.
